Data: ChEMBL document CHEMBL4033748, “SAR and characterization of non-substrate isoindoline urea inhibitors of nicotinamide phosphoribosyltransferase (NAMPT)” (Bioorg Med Chem Lett, 2017)

Protein sequences, listed by entry. Tags and fused reporters are not part of them. Lines headed by an entry give the natural chain unless they say otherwise; changes in a name come on top.
UniProt P43490: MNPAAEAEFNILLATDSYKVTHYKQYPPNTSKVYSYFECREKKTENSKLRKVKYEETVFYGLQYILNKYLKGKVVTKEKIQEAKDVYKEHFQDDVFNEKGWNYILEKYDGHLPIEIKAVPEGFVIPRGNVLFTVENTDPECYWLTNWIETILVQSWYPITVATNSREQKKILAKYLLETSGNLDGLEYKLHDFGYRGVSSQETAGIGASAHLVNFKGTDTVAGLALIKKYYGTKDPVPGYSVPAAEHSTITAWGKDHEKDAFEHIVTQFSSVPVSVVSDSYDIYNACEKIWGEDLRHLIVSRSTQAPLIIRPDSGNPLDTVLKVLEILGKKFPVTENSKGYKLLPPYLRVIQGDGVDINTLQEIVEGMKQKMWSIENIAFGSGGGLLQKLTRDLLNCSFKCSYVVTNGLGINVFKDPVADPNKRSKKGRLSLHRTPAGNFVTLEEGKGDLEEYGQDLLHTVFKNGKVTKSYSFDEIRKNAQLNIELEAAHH

Biological target: Nicotinamide phosphoribosyltransferase (Homo sapiens, UniProt P43490)

| Structure (SMILES) | Ki [nM] |
| --- | --- |
| CC(C)CCNC(=O)c1ccc(NC(=O)N2Cc3ccc(C(F)(F)F)cc3C2)cc1 | 23 |
| NC(=O)c1ccc(NC(=O)N2Cc3ccccc3C2)cc1 | 560 |
| CC(C)(C)CCNC(=O)c1ccc(NC(=O)N2Cc3ccccc3C2)cc1 | 14 |
| CC(C)C(=O)N1CCC(c2ccc(NC(=O)N3Cc4ccccc4C3)cc2)CC1 | 15 |
| CC(C)C[C@@H](CO)NC(=O)c1ccc(NC(=O)N2Cc3ccccc3C2)cc1 | 19 |
| O=C(NCC1CCCOC1)c1ccc(NC(=O)N2Cc3ccccc3C2)cc1 (stereo not given) | 13 |
| O=C(Nc1ccc(N2CCN(C(=O)c3ccccc3)CC2)cc1)N1Cc2ccccc2C1 | 19 |
| CC(C)CCNC(=O)c1ccc(NC(=O)N2Cc3ccncc3C2)cc1 | 7.5 |
| O=C(Nc1ccc(C2=CCN(C(=O)c3ccccc3)CC2)cc1)N1Cc2ccccc2C1 | 3 |
| CC(C)CCNC(=O)c1ccc(NC(=O)N2Cc3ccc(F)cc3C2)cc1 | 7.9 |
| O=C(NCc1ccccc1)c1ccc(NC(=O)N2Cc3ccccc3C2)cc1 | 19 |
| O=C(NCCCc1ccccc1)c1ccc(NC(=O)N2Cc3ccccc3C2)cc1 | 9 |
| CC(C)CCn1cc(-c2ccc(NC(=O)N3Cc4ccccc4C3)cc2)cn1 | 23 |
| Cc1ccc2c(c1)CN(C(=O)Nc1ccc(C(=O)NCCC(C)C)cc1)C2 | 13 |
| O=C(Nc1ccc(C2CCN(C(=O)c3ccccc3)CC2)cc1)N1Cc2ccccc2C1 | 1 |
| CC(C)CCNC(=O)c1ccc(NC(=O)N2Cc3ccccc3C2)cc1 | 11 |
| CC(C)CCNC(=O)c1ccc(NC(=O)N2Cc3cccc(Cl)c3C2)cc1 | 17 |
| O=C(NCCCCC1CCN(C(=O)c2ccccc2)CC1)N1Cc2ccccc2C1 | 1.6 |
| O=C(NCC1CCOC1)c1ccc(NC(=O)N2Cc3ccccc3C2)cc1 (stereo not given) | 24 |
| CC(C)CCNC(=O)c1ccc(NC(=O)N2Cc3ccccc3C2)nc1 | 5.4 |
